Consider 29 molecules from PubChem BioAssay AID687016 (The Scripps Research Institute Molecular Screening Center, 2013).

Sequences of proteins named here, by UniProt entry; tags and fusion partners are left off. A change or cut given only in a name is not applied to a line headed by its entry.
UniProt Q96T88: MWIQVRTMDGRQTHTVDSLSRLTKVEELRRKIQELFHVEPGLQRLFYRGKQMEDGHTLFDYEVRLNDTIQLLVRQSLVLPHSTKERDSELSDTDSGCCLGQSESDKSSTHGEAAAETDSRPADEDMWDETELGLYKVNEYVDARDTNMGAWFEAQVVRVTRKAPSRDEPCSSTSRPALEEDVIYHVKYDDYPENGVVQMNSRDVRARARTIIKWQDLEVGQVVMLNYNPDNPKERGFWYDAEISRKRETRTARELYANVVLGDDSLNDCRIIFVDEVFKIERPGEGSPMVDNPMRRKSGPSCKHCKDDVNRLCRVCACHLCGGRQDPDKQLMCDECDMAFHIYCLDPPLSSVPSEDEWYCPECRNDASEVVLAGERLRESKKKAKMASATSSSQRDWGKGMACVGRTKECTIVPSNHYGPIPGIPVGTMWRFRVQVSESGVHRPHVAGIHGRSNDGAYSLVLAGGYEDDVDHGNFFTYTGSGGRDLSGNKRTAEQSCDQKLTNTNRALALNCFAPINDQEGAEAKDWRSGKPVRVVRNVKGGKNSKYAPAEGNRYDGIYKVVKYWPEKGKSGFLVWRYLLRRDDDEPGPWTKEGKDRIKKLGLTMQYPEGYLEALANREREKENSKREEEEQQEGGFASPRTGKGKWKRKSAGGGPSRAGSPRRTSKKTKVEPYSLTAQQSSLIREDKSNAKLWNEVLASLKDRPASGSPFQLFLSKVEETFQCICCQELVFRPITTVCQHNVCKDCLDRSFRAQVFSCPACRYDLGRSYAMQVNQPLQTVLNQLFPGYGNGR

This is a selection; strong and weak results do not stand in their true shares. Activity calls are given as the source filed them. Cut-off read from the data, not from the text of the source: active = inhibition above about 21%; inactive = the rest.

The assay deals with E3 ubiquitin-protein ligase UHRF1 (Homo sapiens) (UniProt Q96T88). Description: UHRF1 methylated DNA binding inhibitors, primary screen, counter-screen for MBD2 inhibitor project, biochemical, TR-FRET, human UHRF1, single concentration (AID 687016).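 Note: UHRF1 SRA domain binding a hemimethylated CpG hairpin DNA probe; 0% = median of test compound wells and 100% = reference inhibitor.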 The following applies: UHRF1 binding to methylated oligo, at 4.4 µM, stronger effect = higher value. Background: A counterscreen serves to expose hits that act by an unwanted route or on another target.
The inhibition is the relative decrease from the control value, in per cent. `CC1CCNP(=O)(N(CCCl)CCCl)O1` (centres undefined): the inhibition is inactive: 0.14%.

On to `COP(=O)(OC)N1CC1c1ccccc1` (centres undefined), for which the inhibition was inactive: 1.15%.

On to `Cc1cc(SC(NC(=O)c2ccccc2)C(Cl)(Cl)Cl)nc(C(C)C)n1` (centres undefined), for which the inhibition was inactive: -7.33%.

For `CCCCOc1ccc(C(=O)NCC2(N3CCCCC3)CCCCC2)cc1OC`, the inhibition is inactive: -0.27%.

Regarding `O=C(OC1CN2CCC1CC2)c1cccc([N+](=O)[O-])c1` (centres undefined), the inhibition is inactive: 1.6%.

Consider `CCOC(=O)c1ccc(NC(=O)C(C)(CCl)SC)cc1` (centres undefined), for which the inhibition was inactive: 0.75%.

`CCC(C)N(CC(C)C)C(=S)SC(NC(C)=O)C(Cl)(Cl)Cl` (centres undefined): the inhibition is inactive: 1.01%.

In the case of `COC(=O)C1(C)COP(=O)(N2CCCC2)OC1` (centres undefined), the inhibition is inactive: -0.68%.

For the molecule `COP1(=S)c2c(C)nn(CCC#N)c2N=C(c2ccc(F)cc2)N1C` (centres undefined), the inhibition is inactive: -0.25%.

As for `O=C(O)C(=O)c1ccc(N(CCCl)CCCl)cc1`, the inhibition is inactive: -2.08%.

`O=C(Nc1ccncc1[N+](=O)[O-])c1ccc([N+](=O)[O-])cc1[N+](=O)[O-]`: the inhibition is inactive: -0.2%.

Turning to `O=C(COc1ccccc1)OC1CN2CCC1CC2` (centres undefined), the inhibition was inactive: -2.84%.

For `O=[N+]([O-])c1cc(Oc2ccc([N+](=O)[O-])cc2C(F)(F)F)cc([N+](=O)[O-])c1`, the inhibition is inactive: 2.63%.

Consider `COc1ccc(N/C(=N/P(=O)(N2CCOCC2)N2CCOCC2)N2CCOCC2)cc1`, for which the inhibition was inactive: 8.31%.

`Cc1c2c(nc3ccccc13)SC(C(Cl)Cl)C2` (centres undefined): the inhibition was inactive: -3.35%.

Turning to `Cc1cc(=O)[nH]c(N[N+](=O)[O-])n1`, the inhibition is inactive: -2.04%.

Regarding `O=C(OC1CN2CCC1CC2)C12CC3CC(CC(C3)C1)C2` (centres undefined), the inhibition was inactive: 2.48%.

Turning to `O=P1(N(CCCl)CCCl)Nc2ccccc2N1`, the inhibition is inactive: -0.54%.

Consider `O=P1(N(CCCl)CCCl)OCCCN1CCCl` (centres undefined), for which the inhibition was inactive: 3.13%.

In the case of `COc1cc(I)ccc1[As](=O)(O)O`, the inhibition is inactive: 3.87%.

Turning to `COc1ccc2nc(NP(=O)(c3ccccc3)c3ccccc3)sc2c1`, the inhibition is inactive: -0.87%.

Turning to `ClCCSc1nnc(-c2cccnc2)o1`, the inhibition is inactive: -1.27%.

As for `CC(C)c1ccc(OP(=O)(Nc2ccccn2)Oc2ccccc2F)cc1` (centres undefined), the inhibition was inactive: 1.4%.

`COC(=O)C1(C)COP(=O)(N2CCCCCC2)OC1` (centres undefined): the inhibition was inactive: 1.37%.

With `O=C(OC1CN2CCC1CC2)c1cccc2[nH]cnc12` (centres undefined), the inhibition was inactive: 3.28%.

As for `CCN(CC)C(=S)SC(NC=O)C(Cl)(Cl)Cl` (centres undefined), the inhibition is inactive: 4.9%.

On to `CC(C)NC(=O)NP(=O)(Oc1ccccc1)Oc1ccccc1`, for which the inhibition was inactive: 1.6%.

Consider `COc1cc(C(=O)NCC2(N3CCOCC3)CCCCC2)ccc1OCC(C)C`, for which the inhibition is inactive: 9.52%.

For the molecule `O=[N+]([O-])c1ccc(-c2cc([N+](=O)[O-])c(O)c([N+](=O)[O-])c2)cc1`, the inhibition was inactive: -8.96%.
